Assay results published in patent US20060148020A1, “Inhibitors of gst a3-3 and gst a1-1 for the treatment of cancer” (priority 2002, published 2006).

Chains of the proteins cited; added tags and fusions are not shown. Lines headed by an entry give the natural chain unless they say otherwise; changes in a name come on top.
UniProt P08263: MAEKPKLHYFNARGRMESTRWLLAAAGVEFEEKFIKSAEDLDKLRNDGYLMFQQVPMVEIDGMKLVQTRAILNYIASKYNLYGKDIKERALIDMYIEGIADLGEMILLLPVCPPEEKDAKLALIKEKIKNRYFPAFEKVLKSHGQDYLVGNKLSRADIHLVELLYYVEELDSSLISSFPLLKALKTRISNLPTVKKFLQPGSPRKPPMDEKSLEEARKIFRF
UniProt P09210: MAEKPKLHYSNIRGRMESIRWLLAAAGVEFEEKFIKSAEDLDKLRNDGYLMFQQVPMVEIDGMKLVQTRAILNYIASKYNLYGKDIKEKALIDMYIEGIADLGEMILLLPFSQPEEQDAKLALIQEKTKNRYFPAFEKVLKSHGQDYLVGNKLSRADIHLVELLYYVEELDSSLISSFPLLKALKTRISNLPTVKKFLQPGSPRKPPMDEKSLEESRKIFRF
UniProt Q16772: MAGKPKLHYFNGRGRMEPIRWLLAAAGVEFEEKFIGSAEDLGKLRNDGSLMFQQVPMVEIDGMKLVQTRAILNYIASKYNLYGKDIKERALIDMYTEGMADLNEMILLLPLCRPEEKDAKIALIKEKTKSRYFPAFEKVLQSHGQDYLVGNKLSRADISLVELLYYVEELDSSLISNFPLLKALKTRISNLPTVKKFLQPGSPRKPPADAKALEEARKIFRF

Columns and labels:
Test in all cases: Inhibition of GST-catalyzed reaction, standard assay system (IC50)
[1] = molecular target: GST A1-1 (Homo sapiens, UniProt P08263); conditions: read-out: IC50 Values GST A1-1, inhibitor concentration giving 50% inhibition of the GST-catalyzed reaction, purified recombinant enzyme
[2] = molecular target: GST A2-2 (Homo sapiens, UniProt P09210); conditions: read-out: IC50 Values GST A2-2, inhibitor concentration giving 50% inhibition of the GST-catalyzed reaction, purified recombinant enzyme
[3] = molecular target: GST A3-3 (Homo sapiens, UniProt Q16772); conditions: read-out: IC50 Values GST A3-3, inhibitor concentration giving 50% inhibition of the GST-catalyzed reaction, purified recombinant enzyme

For C[CH2][Sn]([Br])([CH2]C)[CH2]C, the IC50 [1] was 5700 nM, the IC50 [2] was 190 nM and the IC50 [3] was 690 nM.
